The values that follow are results of earlier work, collected in article PMC10907374, “G2019S selective LRRK2 kinase inhibitor abrogates mitochondrial DNA damage” (NPJ Parkinson's Disease, 2024).

This series relates to LRRK2 kinase. To be noted: cited from earlier work.

As for `CNc1nc(Nc2cn(C(C)(C)C#N)nc2C)ncc1C(F)(F)F` [DNL201], the “blood brain barrier crossing” value (humans, based on inhibitor concentrations in cerebrospinal fluid ref 15) is “able to cross the blood brain barrier”. Besides, under “single-ascending or multiple-ascending dose (10 days) cohorts, healthy volunteers or PD patients ref 15”, the lung function entry is given as “did not seem to be impacted”.
